From patent publication US20240417395A1, “DUAL ANTAGONIST AND USE THEREOF” (NICOYA THERAPEUTICS (SHANGHAI) CO., LTD, priority 2021, published 2024)
Like-named read-outs stand apart in the source and are kept apart here.

Amino acid sequences for entries named in this document (tags omitted). Residues count along the entry.
UniProt P25101, 21-427 limits assumed: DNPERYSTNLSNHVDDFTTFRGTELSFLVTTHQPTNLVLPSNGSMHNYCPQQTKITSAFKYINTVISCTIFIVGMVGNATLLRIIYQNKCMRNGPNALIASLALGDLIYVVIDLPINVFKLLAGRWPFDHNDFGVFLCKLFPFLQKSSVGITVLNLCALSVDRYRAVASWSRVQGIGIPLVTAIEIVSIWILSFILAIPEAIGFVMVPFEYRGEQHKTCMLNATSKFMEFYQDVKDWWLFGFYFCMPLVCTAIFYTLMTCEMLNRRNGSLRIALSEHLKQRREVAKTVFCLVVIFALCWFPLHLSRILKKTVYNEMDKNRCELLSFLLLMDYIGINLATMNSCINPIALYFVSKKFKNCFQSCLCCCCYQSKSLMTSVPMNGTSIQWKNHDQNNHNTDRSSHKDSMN

Legend:
[1] = biological target: AT1 (Homo sapiens (Human), UniProt P30556); assay: Calcium flux assay on AT1 cell line; format: cell-based; conditions: AT1/HEK293, calcium flux, angiotensin II agonist
[2] = biological target: ETa (Homo sapiens (Human), UniProt P25101); assay: Calcium flux assay on ETa cell line; conditions: ETa/HEK293, calcium flux, endothelin-1 agonist
[3] = Experiment on water solubility (HPLC-UV); format: physicochemical
[4] = read-out: IC50 activity against AT1 (class)
[5] = read-out: IC50 activity against ETa (class)

Row | Structure (SMILES) | IC50 [1, 4] | IC50 ([1]; read-out: IC50 against AT1) | IC50 [2, 5] | IC50 ([2]; read-out: IC50 against ETa) | Solubility FaSSGF (pH1.6) ([3]; FaSSGF (pH1.6)) | Solubility FaSSIF (pH6.5) ([3]; FaSSIF (pH6.5)) | Solubility FeSSIF (pH5.0) ([3]; FeSSIF (pH5.0)) | Solubility pH7.4 ([3]; pH7.4)
1 | CCCCc1nn(C2CC2)c(=O)n1Cc1ccc(-c2ccccc2S(=O)(=O)Nc2noc(C)c2C)c(COCC)c1 | 1 to 10 nM | 6.14 nM | 10 to 100 nM | 23.6 nM | – | – | – | –
2 | CCCCC1=N[C@@]2(C[C@H]3C[C@H]3C2)C(=O)N1Cc1ccc(-c2ccccc2S(=O)(=O)Nc2noc(C)c2C)c(CN(C)C(=O)CC(C)(C)C)c1 (relative stereo) | 10 to 100 nM | 26.8 nM | 10 to 100 nM | 14.8 nM | 0.12 mg/mL | 0.19 mg/mL | 0.06 mg/mL | 0.41 mg/mL
